The text below walks through data of patent EP4707263A1, “FLUORINATING AGENT AND FLUORINATION METHOD” (Daikin Industries, Ltd., priority 2024, dated 2025).

Usually pKa stands for the negative logarithm of the acid dissociation constant.

The data set is described as follows: pKa (acid dissociation constant) determined by neutralization titration. Format: physicochemical. The following applies: acid dissociation constant at 25°C in water.

The substance tBuOK [Base B-1] had a pKa of 17.
In the case of tBuONa [Base B-4], the pKa is given as 17.
